Experimental findings from US8628750B2, “Cancer imaging and treatment” (Technische Universitat Munchen, priority 2006, dated 2014) are described below.

The chains behind the UniProt entries cited, without tags or fusion partners.
UniProt P61073, whole entry: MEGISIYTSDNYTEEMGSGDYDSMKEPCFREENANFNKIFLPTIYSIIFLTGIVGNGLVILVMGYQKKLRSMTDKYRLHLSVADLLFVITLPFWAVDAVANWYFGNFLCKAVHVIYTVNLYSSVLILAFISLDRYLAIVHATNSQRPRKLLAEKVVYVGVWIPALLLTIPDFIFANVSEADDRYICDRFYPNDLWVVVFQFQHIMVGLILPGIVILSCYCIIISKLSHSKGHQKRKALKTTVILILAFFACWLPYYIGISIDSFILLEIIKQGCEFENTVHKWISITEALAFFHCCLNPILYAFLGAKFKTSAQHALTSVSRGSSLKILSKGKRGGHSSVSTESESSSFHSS

In the assay the target is human CXCR4 (Homo sapiens, UniProt P61073). Put plainly: cell-based. Type of assay: binding. On the set-up: Jurkat cells that endogenously express the CXCR4 receptor; endogenous in cells; host or cells: Jurkat (ATCC). Particulars: for affinity profile (IC50) in words: either with ^125I-CPCR4 or ^125I-SDF-1α as tracer. Here is the method: For receptor binding assays cells were resuspended in PBS/0.2% BSA. […] Cell bound radioactivity was determined by using a gamma counter.

Like-named read-outs stand apart in the source and are kept apart here.

Usually IC50 stands for the concentration that gives 50% inhibition. Regarding `N=C(N)NCCC[C@@H]1NC(=O)[C@H](CCCNC(N)=O)NC(=O)[C@@H](Cc2ccc(O)cc2)NC(=O)CNC(=O)[C@H](Cc2ccc3ccccc3c2)NC1=O` [OD27, cyc[Nal-Gly-D-Tyr-Cit-Arg]], it took 0.035 ± 0.007 µM to reach half-maximal inhibition (IC50).

In the case of SDF-1α, the “affinity profile (IC50) in words” value is on record as “nanomolar IC50 values”.

In the case of “cyc[D-Tyr-Arg-Arg-Nal-Dap(FP)-Gly] [BL 58]”, the IC50 (Table 7, N^α-methyl scan of cyclic hexapeptides, tracer ^125I-CPCR4, read-out: IC50) was around 1 µM.

Consider “cyclo[D-Tyr-Arg-Arg-Nal-Gly] [CPCR4, reference compound]”, for which the “affinity profile (IC50) in words” value is recorded as “nanomolar IC50 values”.
